Values of other authors as cited in PubChem BioAssay AID977610.
This list holds what a sample rich in hits left over. The source made the active and inactive calls. Cut-off not given; nearly all actives show Ki up to about 18000 µM.

Assay: PubChem AID 977610
Conditions: PDB protein-ligand complexes, literature Ki; protein: Glycogen Phosphorylase b from Oryctolagus cuniculus, PDB entry 2qnb unless noted

Ki, active:
O=C(NC(=O)c1ccccc1)N[C@@H]1O[C@H](CO)[C@@H](O)[C@H](O)[C@H]1O 4.6 µM, CC(C)C[C@H](NC(=O)[C@H](CCCN=C(N)N)NC(=O)[C@@H](NC(=O)[C@H](CC(=O)O)NC(=O)[C@H](CCC(N)=O)NC(=O)[C@H](Cc1c[nH]c2ccccc12)NC(=O)[C@H](CCCN=C(N)N)NC(=O)[C@H](CO)NC(=O)[C@H](CC(N)=O)NC(=O)[C@H](C)N)[C@@H](C)O)C(=O)O 16.2 µM [protein: CFTR Associated Ligand (CAL) E317A PDZ domain, PDB entry 4k78], CC[C@H](C)[C@H](NC(=O)[C@@H](NC(=O)[C@H](CO)NC(=O)[C@@H](NC(=O)[C@@H]1CCCN1C(=O)[C@H](C)NC(=O)[C@H](CCCN=C(N)N)NC(=O)[C@H](CO)NC(=O)[C@H](CC(N)=O)NC(=O)[C@H](C)N)[C@@H](C)O)[C@@H](C)CC)C(=O)O 275 µM [protein: CFTR Associated Ligand (CAL) PDZ domain, PDB entry 4joe]
